The target of assay [1] is GST-VARP residues 692-746 (Zn-fingernail 2) (UniProt Q96NW4). Nature of the assay: SPR; as a1 at five temperatures (8 to 25 °C); van 't Hoff plot of ln KD against 1/T for the binding enthalpy. In general terms: Surface plasmon resonance follows binding to a sensor surface in real time, without labels.
In assay [2] the target is GST-VARP residues 396-460 (Zn-fingernail 1) (UniProt Q96NW4). Nature of the assay: SPR; Biacore T200; GST fusion captured on goat anti-GST antibody coupled to a CM5 chip, GST-CLA on the blank flow cell; VPS29 as analyte, typically 40 to 0.3 μM; 20 mM Tris, 200 mM NaCl, 0.1 mM TCEP, 0.5 μM ZnCl2, pH 7.4; 12 °C for the KD of 2–3 µM; equilibrium and kinetic analysis, single site.

Take “VPS29 (short isoform, N-terminal sequence MLVL), untagged (from UniProt Q9UBQ0-1 1-182) (natural protein)”: the dH in assay [1] was -4.78 kcal/mol. In assay [2], the Kd – broadly, the constant that tells how readily two partners part at equilibrium – turned out to be 5 µM.

The values are drawn from PMC7539009.
